2 compounds from ChEMBL document CHEMBL2169845 (J Med Chem, 2012) can be followed below.

SMILES strings stand for the structures.

Test [1] concerns NCI-H1417. As to the kind of experiment: Cytotoxicity against human H1417 cells assessed as growth inhibition after 4 days by WST-8 assay. As to conditions: NCI-H1417, 96 h. Format: functional, cell-based.
The nature of test [2]: Cytotoxicity against human NCI-H146 cells assessed as growth inhibition after 4 days by WST-8 assay. Format: functional, cell-based. The note with it: NCI-H146, 96 h.

Broadly, the IC50 is the concentration that gives 50% inhibition. With `Cc1c(C(=O)O)c(-c2cccc(N3CCN(c4ccc(NS(=O)(=O)c5ccc(N[C@H](CCN(C)C)CSc6ccccc6)c(S(=O)(=O)C(F)(F)F)c5)cc4)CC3)c2)c(-c2ccc(Cl)cc2)n1C`, the 50% inhibitory concentration (IC50) was found to be 151 nM in test [1] and 98 nM in test [2].
On to `Cc1c(C(=O)O)c(-c2cccc(N3CCN(c4ccc(NS(=O)(=O)c5ccc(N[C@H](CCN6CCOCC6)CSc6ccccc6)c(S(=O)(=O)C(F)(F)F)c5)cc4)CC3)c2)c(-c2ccc(Cl)cc2)n1C`, for which the values for the IC50 in test [1] and in test [2] were 677 nM and 476 nM, respectively.
